Values of other authors as cited in patent US12589095B2, “Unit dosage form for transmucosal drug delivery of an active pharmaceutical ingredient” (Primo Pharmatech LLC, priority 2019, dated 2026).

Details: known / published value; cited from earlier work

| Substance | HLB |
| --- | --- |
| Triethanolamine oleate | 11.1 |
| Polyoxyethylene alkyl phenol | 12.0 |
